Target: transforming growth factor-beta
Assay: cell-based or functional assay

- IFN-gamma secreted by activated OT-1 in the presence of splenocytes from IL-6KO mice treated with Ad-VSV-G+Ad-hsp70, with 50 ng/mL 341-BR TGF-beta sRII/Fc: 710 pg/mL
- fold increase of IFN-gamma secreted by activated OT-1 in the presence of splenocytes from IL-6KO mice: 5 to 6 fold
Substance: recombinant human TGF-beta sRII/Fc chimera (from UniProt P37173 23-166) (Fc fusion)

Reference: patent US20100292309A1
